# Values of other authors as cited in US20220170859A1, “PARTICLE LABELING REAGENT, PARTICLE DYEING METHOD, AND MICROSCOPIC SYSTEM” (SONY GROUP CORPORATION, priority 2019, published 2022).
# Chains of the proteins cited; added tags and fusions are not shown. Residues count along the entry.
# UniProt P02701, 25-152 limits assumed: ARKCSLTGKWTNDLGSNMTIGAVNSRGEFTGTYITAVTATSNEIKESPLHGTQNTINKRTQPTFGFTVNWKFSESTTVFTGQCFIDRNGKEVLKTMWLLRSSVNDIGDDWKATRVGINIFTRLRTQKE
# Target: avidin (Gallus gallus, UniProt P02701)
# Settings: read-out: Dissociation constant; complex with avidin; cited from earlier work
smiles,measurement,value
O=C(O)c1ccccc1N=Nc1ccc(O)cc1,Kd,5.8 µM
